Values quoted from earlier work in patent US20160331796A1, “ENRICHED AMARANTHUS BLITOIDES COMPOSITIONS AND USES THEREOF” (priority 2010, published 2016).

## Vitamin D
adults, acute toxicity within two weeks
  daily ingestion producing acute toxicity: 375 µg/kg
adults, long term daily ingestion
  daily ingestion at which toxicity has been observed: 25 µg/kg
Healthy adults
  dosage at which toxicity has been seen: above 1250 μg/day
